Patent US4144228A, “Methionine^5 -enkephalin sulfoxides and sulfones” (G. D. Searle & Co., priority 1976, dated 1979)

Test system: opiate receptor sites
Conditions: guinea pig whole brain membrane fraction, 4° C., in the absence of sodium ion

CCC(=O)C(CC(C)N(C)C)(c1ccccc1)c1ccccc1 (centres unmarked) [methadone]
ID50 concentration of the 3H-naloxone binding: 2.4 × 10^-8

CN1CC[C@]23c4c5ccc(O)c4O[C@H]2[C@@H](O)C=C[C@H]3[C@H]1C5 [morphine]
ID50 concentration of the 3H-naloxone binding: 1.2 × 10^-8
